US7585941B2 (priority 2004, dated 2009)

How the values were obtained:
Assay in all cases: biochemical
Assay type in all cases: binding
hMOR-1B1 = hMOR-1B1 (Homo sapiens, UniProt P35372)
hMOR-1(exons 1-3) = target: T1, hMOR-1(exons 1-3) (Homo sapiens, UniProt P35372)
T1 construct: A cDNA fragment containing only exons 1, 2 and 3 was also generated by PCR; expressed in transfected cells

hMOR-1B2 = hMOR-1B2 (Homo sapiens, UniProt P35372)
hMOR-1Y = hMOR-1Y (Homo sapiens, UniProt P35372)

In the case of `CC(C)C[C@@H](NC(=O)[C@H](Cc1ccccc1)NC(=O)CNC(=O)[C@@H](C)NC(=O)[C@@H](N)Cc1ccc(O)cc1)C(=O)O` [DADLE], the Ki (hMOR-1B1) is reported as 3.6 ± 2.6 nM, the Ki (hMOR-1(exons 1-3)) is reported as 4.5 ± 1.5 nM and the Ki (hMOR-1B2) is reported as 10 ± 5.9 nM. For the same molecule, the Ki (hMOR-1Y) was 6.5 ± 3 nM.
